Measured values from ChEMBL document CHEMBL5244276, “New Series of Potent Allosteric Inhibitors of Deoxyhypusine Synthase” (ACS Med Chem Lett, 2020).

Experiment: Metabolic stability in mouse liver microsomes assessed as clearance at 1 uM measured upto 30 mins in the presence of NADPH-generating system by LC-MS analysis
Type: ADME, Microsome
Settings: 0.5 h

CLH | Compound
304 µL/min/mg | O=C(Nc1cccc2[nH]ccc12)c1cc2ccc(Br)cc2s1
185 µL/min/mg | NCC(c1csc2ccccc12)N1CCc2c(-c3cccnc3)csc2C1=O (racemic)
114 µL/min/mg | CCCCCCC(CN)N1CCc2c(-c3cccnc3)csc2C1=O (racemic)
